Measured values as given in patent EP4847022A1, “AGENT FOR PREVENTING OR AMELIORATING METABOLIC DYSFUNCTION-ASSOCIATED STEATOTIC LIVER DISEASES” (dated 2026).

What was measured:
[1] = system: diet- and drug-induced MASH model mice with advanced fibrosis; experiment: Therapeutic effect on diet- and drug-induced MASH model mice with advanced fibrosis; conditions: advanced fibrosis+MA5 group vs advanced fibrosis group (FFC+CCl4), MA5 25 mg/kg orally three times a week, 6 weeks, n=1 per group
Method: In order to confirm that the present compound is effective for the treatment of MASLD, analyses were performed using diet- and drug-induced MASH model mice with advanced fibrosis.
After 12-week-old C57BL/6J mice (obtained from Japan SLC, Inc.) (male, n=2) were acclimatized for one week, they were randomly divided into two intervention groups (advanced fibrosis group [n=1] and advanced fibrosis+MA5 group [n=1]) and subjected to intervention for 6 weeks. In order to create MASLD model mice with advanced fibrosis for these two intervention groups, the mice were fed a high-fat, high-cholesterol diet (Western Diet powder [manufactured by Research Diets, Inc., D12079BM]) and high-glucose, high-fructose water (18.9 g D-glucose/L, 23.1 g D-fructose/L), and carbon tetrachloride, which is a drug that induces liver damage and liver fibrosis, was continuously administered intraperitoneally. Further, the advanced fibrosis group was orally administered with DMSO three times a week using a feeding tube, and the advanced fibrosis+MA5 group was orally administered with MA5 (25 mg/kg) three times a week using a feeding tube. The diet and water were replenished once a week. […] After plasma separation, the blood samples were measured for blood AST activity and blood ALT activity using Spotchem II Kenshin-2 (manufactured by ARKRAY, Inc.). […]

[2] = system: high-fructose, high-saturated fatty acid, high-cholesterol diet (FFC diet) model; experiment: Therapeutic effect on FFC diet model (diet-induced MASH model mice); conditions: FFC+MA5 group vs FFC group
Method: In order to confirm that the present compound is effective for the treatment of MASLD, analyses were performed using a high-fructose, high-saturated fatty acid, high-cholesterol diet (FFC diet) model, that is, diet-induced MASH model mise.
After 49-week-old C57BL/6J mice (obtained from Japan SLC, Inc.) (male, n=16) and 50-week-old C57BL/6J mice (obtained from CLEA Japan, Inc.) (male, n=10) were acclimatized for one week, they were randomly divided into three intervention groups (control group [n=6], FFC group [n=10], and FFC+MA5 group [n=10]) and subjected to intervention for 25 weeks. The control group was fed a standard diet (CE-2, manufactured by CLEA Japan, Inc.) and water, the FFC group was fed a high-fat, high-cholesterol diet (Western Diet powder [manufactured by Research Diets, Inc., D12079BM]) and high-glucose, high-fructose water (18.9 g D-glucose/L, 23.1 g D-fructose/L), and the FFC+MA5 group was fed a diet obtained by mixing the above high-fat, high-cholesterol diet with MA5 in a mass ratio of 0.012% (equivalent to approximately 5 mg/kg/day of MA5 when converted to a human dosage based on the conversion factor per body surface area) and the above high-glucose, high-fructose water. The mice were weighed and the various diets and water were replenished once a week. After 15 weeks of intervention (i.e., at 64 to 65 weeks of age), the mice in each group were anesthetized, and approximately 200 µL of blood samples were collected from the orbital venous plexus. After 25 weeks of intervention (i.e., at 74 to 75 weeks of age), the mice were euthanized after 4 hours of fasting, and blood samples and liver tissue were rapidly collected. After plasma separation, the blood samples were measured for blood AST activity and blood ALT activity using Spotchem II Kenshin-2 (manufactured by ARKRAY, Inc.). Based on the collected liver tissue, formalin-fixed, paraffin-embedded specimens were prepared and subjected to HE staining, and inflammation levels in the liver tissue were measured using an optical microscope based on the NAFLD activity score (NAS). Further, Masson's trichrome staining was performed, and fibrosis levels in the liver tissue were measured using an optical microscope according to the method described in the document "Hepatology. 2005 Jun;41(6):1313-21."

[3] = system: high-fat, methionine-restricted, tyrosine-deficient diet (HF-MRTD diet) model; experiment: Therapeutic effect on HF-MRTD diet model (diet-induced MASLD model mice); conditions: HF-MRTD+MA5 group vs HF-MRTD group, MA5 0.012% in diet
Method: In order to confirm that the present compound is effective for the treatment of MASLD, analyses were performed using a high-fat, methionine-restricted, tyrosine-deficient diet (HF-MRTD diet) model, that is, diet-induced MASLD model mice.
After 6-week-old C57BL/6J mice (obtained from Japan SLC, Inc.) (male, n=15) were acclimatized for one week, they were randomly divided into three intervention groups (control group [n=5], HF-MRTD group [n=5], and HF-MRTD+MA5 group [n=5]) and subjected to intervention for 22 weeks. The control group was fed a standard diet (CE-2, manufactured by CLEA Japan, Inc.) and water, the HF-MRTD group was fed a powdered MRTD diet (a diet containing 60% fat by calorie and 0.2% methionine by mass, prepared according to the method described in the document "Hepatology. 2021 Sep;74(3):1271-1286.") and high-glucose, high-fructose water (18.9 g D-glucose/L, 23.1 g D-fructose/L), and the HF-MRTD+MA5 group was fed a diet obtained by mixing the above powdered MRTD diet with MA5 in a mass ratio of 0.012%, and the above high-glucose, high-fructose water. The various diets and water were replenished once a week. After 13 weeks of intervention (i.e., at 19 weeks of age), the mice in each group were anesthetized, and approximately 200 µL of blood samples were collected from the orbital venous plexus. After 22 weeks of intervention (i.e., at 28 weeks of age), the mice were euthanized after 4 hours of fasting, and blood samples and liver tissue were rapidly collected. After plasma separation, the blood samples were measured for blood AST activity and blood ALT activity using Spotchem II Kenshin-2 (manufactured by ARKRAY, Inc.). Based on the collected liver tissue, formalin-fixed, paraffin-embedded specimens were prepared and subjected to HE staining, and steatosis levels in liver tissue were measured using an optical microscope based on NAS. Further, Masson's trichrome staining was performed, and fibrosis levels in the liver tissue were measured using an optical microscope according to the method described in the document "Hepatology. 2005 Jun;41(6):1313-21."

[4] = system: methionine- and choline-deficient diet (MCD diet) model; experiment: Therapeutic effect on MCD diet model (diet-induced MASLD model mice); conditions: MCD+MA5 group vs MCD group, MA5 0.012% in diet, n=2 per group
Method: In order to confirm that the present compound is effective for the treatment of MASLD, analyses were performed using a methionine- and choline-deficient diet (MCD diet) model, that is, diet-induced MASLD model mice.
After 54-week-old C57BL/6J mice (obtained from Japan SLC, Inc.) (male, n=6) were acclimatized for one week, they were randomly divided into three intervention groups (control group [n=2], MCD group [n=2], and MCD+MA5 group [n=2]) and subjected to intervention until the individual mice died. The control group was fed a standard diet (CE-2, manufactured by CLEA Japan, Inc.) and water, the MCD group was fed a methionine- and choline-deficient diet (manufactured by Research Diets, Inc., A02082002BRM) and water, and the MCD+MA5 group was fed a diet obtained by mixing the above methionine- and choline-deficient diet with MA5 in a mass ratio of 0.012%, and water. During the period until the individual mice died, the mice were weighed and the various diets and water were replenished once a week.

O=C(CC(C(=O)O)c1c[nH]c2ccccc12)c1ccc(F)cc1F (stereo not shown)
blood AST activity ([1]; Figure 6A): reductions in the increased blood AST activity | blood ALT activity ([1]; Figure 6B): reductions | inflammation levels in the liver tissue ([2]; MA5 0.012% in diet, 25 weeks, HE staining, NAFLD activity score (NAS), Figure 2B): significant decreases in the increased inflammation | fibrosis levels in the liver tissue ([2]; MA5 0.012% in diet, 25 weeks, Masson's trichrome staining, Figure 2C): significant decreases | blood AST activity ([2]; MA5 0.012% in diet, after 25 weeks of intervention (Figure 1C), effects maintained over at least 15 to 25 weeks): a significant reduction in the increased blood AST activity | blood ALT activity ([2]; MA5 0.012% in diet, after 25 weeks of intervention (Figure 1E), effects maintained over at least 15 to 25 weeks): a significant reduction | mouse body weight ([2]; MA5 mixed in diet at mass ratio 0.012%, intervention for 25 weeks, Figure 1A): a reduction in the increased body weight | steatosis levels in liver tissue ([3]; 22 weeks, HE staining, NAS, Figure 4B): a decrease in the increased steatosis level | fibrosis levels in the liver tissue ([3]; 22 weeks, Masson's trichrome staining, Figures 4A and 4C): a significant decrease in the increased fibrosis level | blood AST activity ([3]; after 22 weeks of intervention (Figure 3B), effects maintained over at least 13 to 22 weeks): a reduction in the increased blood AST activity | blood ALT activity ([3]; after 22 weeks of intervention (Figure 3D), effects maintained over at least 13 to 22 weeks): a significant reduction in the increased blood ALT activity | mouse lifespan (survival rate) ([4]; Figure 5B): an extension of the shortened mouse lifespan | mouse body weight ([4]; until the individual mice died, Figure 5A): an increase in the decreased mouse body weight
